The source of these data is BindingDB's records for doi:10.1124/jpet.105.092155 (Acadia Pharmaceuticals, 2005).

By UniProt entry, the sequences of proteins in these tests, tags left out. Chains listed by the source or under a name are the forms on record and can include a tag or linker.
UniProt P35462, as listed by the source: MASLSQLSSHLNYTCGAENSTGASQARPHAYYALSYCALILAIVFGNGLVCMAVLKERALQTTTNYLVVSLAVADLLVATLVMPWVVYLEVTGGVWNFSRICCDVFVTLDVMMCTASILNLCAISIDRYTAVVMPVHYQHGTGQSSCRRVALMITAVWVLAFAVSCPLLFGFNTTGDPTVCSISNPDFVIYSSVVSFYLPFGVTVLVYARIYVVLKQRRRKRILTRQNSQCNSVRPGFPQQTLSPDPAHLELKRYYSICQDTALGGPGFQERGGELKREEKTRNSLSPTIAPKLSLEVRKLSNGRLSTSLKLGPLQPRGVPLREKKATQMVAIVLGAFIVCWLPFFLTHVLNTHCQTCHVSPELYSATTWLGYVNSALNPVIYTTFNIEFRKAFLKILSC
UniProt P21917, whole entry: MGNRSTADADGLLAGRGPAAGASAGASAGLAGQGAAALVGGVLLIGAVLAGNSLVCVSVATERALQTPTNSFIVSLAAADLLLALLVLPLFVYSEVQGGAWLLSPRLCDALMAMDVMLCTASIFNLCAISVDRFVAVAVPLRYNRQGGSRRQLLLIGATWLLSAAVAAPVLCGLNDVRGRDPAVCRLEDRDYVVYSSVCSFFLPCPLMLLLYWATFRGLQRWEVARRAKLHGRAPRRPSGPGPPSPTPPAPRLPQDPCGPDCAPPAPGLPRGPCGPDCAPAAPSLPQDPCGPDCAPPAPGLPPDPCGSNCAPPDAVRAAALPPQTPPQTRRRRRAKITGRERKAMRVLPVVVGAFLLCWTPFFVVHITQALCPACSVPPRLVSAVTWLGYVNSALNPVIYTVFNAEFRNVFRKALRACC

Each structure is given as a SMILES string. Values joined by “and” are separate entries in the source; they are usually repeats but may differ in a detail not shown here. Equal entries are not always repeated.

Broadly, the Ki is the equilibrium dissociation constant of an inhibitor or competing ligand from its target. The low end stands for tighter binding, the high end for weaker binding.

The target in one assay is D(3) dopamine receptor (Homo sapiens, UniProt P35462).
For a further assay, the target named is D(4) dopamine receptor (Homo sapiens, UniProt P21917).

With `CCN1CCCC1CNC(=O)c1cc(S(N)(=O)=O)ccc1OC` (configuration not stated) [N-[(1-ethylpyrrolidin-2-yl)methyl]-2-methoxy-5-sulfamoylbenzamide], the Ki at D(3) dopamine receptor is 7.9 nM and 8.2 nM; on D(4) dopamine receptor, 54 nM.
